As a reminder, the IC50 is the concentration at which inhibition is half-maximal.

The chains behind the UniProt entries cited, without tags or fusion partners.
UniProt Q86XP0, whole entry P10T: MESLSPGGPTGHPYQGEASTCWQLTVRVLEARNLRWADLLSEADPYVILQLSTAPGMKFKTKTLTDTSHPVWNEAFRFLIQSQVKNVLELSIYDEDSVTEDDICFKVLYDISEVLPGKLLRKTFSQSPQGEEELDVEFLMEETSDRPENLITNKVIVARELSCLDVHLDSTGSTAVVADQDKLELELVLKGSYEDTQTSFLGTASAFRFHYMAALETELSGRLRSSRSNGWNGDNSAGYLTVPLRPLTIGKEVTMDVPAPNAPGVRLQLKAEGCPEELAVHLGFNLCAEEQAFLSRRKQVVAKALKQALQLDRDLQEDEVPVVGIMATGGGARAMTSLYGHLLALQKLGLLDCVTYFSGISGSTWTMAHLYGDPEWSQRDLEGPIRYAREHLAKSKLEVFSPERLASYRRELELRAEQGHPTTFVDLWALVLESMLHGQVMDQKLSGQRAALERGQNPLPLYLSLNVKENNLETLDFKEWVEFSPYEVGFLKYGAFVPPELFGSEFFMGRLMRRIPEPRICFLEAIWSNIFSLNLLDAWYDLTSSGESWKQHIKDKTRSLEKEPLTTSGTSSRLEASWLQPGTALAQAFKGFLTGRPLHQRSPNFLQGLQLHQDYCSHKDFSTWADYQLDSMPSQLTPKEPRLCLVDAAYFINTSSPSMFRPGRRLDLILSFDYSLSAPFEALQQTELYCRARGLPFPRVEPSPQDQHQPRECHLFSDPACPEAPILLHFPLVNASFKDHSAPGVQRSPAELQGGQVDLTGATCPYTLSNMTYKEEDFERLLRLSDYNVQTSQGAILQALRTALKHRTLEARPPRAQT
UniProt P47712, whole entry: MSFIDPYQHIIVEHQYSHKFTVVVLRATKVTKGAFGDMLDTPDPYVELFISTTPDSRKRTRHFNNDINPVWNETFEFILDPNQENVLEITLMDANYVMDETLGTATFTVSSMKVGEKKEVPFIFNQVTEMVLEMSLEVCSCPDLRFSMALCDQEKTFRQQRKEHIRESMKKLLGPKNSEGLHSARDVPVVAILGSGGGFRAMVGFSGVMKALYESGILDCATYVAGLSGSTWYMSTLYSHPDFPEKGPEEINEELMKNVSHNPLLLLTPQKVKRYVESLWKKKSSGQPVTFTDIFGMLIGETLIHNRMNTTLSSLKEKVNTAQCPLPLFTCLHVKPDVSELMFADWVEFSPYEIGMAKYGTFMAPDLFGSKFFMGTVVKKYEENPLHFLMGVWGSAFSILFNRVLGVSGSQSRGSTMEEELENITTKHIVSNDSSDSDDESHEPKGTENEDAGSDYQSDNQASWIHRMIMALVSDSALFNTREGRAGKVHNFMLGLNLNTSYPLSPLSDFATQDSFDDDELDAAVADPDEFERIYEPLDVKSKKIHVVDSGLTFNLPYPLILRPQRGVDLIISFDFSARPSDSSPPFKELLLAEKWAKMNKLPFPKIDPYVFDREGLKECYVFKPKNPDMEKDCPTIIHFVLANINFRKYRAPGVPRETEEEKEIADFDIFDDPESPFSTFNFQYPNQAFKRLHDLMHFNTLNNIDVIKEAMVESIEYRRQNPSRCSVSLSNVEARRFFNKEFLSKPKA

The target in assay [1] is GS21015 (Homo sapiens, UniProt Q86XP0, P10T). The experiment in a line: Inhibitory action on phospholipase A2 activity of GS21015 (release of [14C]arachidonic acid from 1-palmitoyl-2-arachidonyl-phosphatidylcholine). As to the method:
Supernatant of the cell lysate was obtained from cells overexpressing GS21015 (COS-7 cells with which the expression vector plasmid for GS21015 was transfected) in the same manner as in Example 4 mentioned above, and the resulting supernatant was used as an enzyme solution. In addition, using 1-palmitoyl-2-arachidonyl-phosphatidylcholine as a substrate, the activity of hydrolyzing this substrate (activity of hydrolyzing an ester bond at 2-position to release arachidonic acid) was determined. In addition, the determination of activity was carried out in the same manner as the method described in the literature (Underwood et al., The Journal of Biological Chemistry, 273, 21926-21932, 1998), as follows.
First, 1 -palmitoyl-2-[^14C]arachidonyl-phosphatidylcholine (manufactured by Life Science Products) dried under a nitrogen gas was added to a reaction buffer [10 mM HEPES pH 7.5, 2 mM calcium chloride, 150 mM sodium chloride, 30% glycerol, 1 mg/ml bovine serum albumin (fatty acid-free)] so as to have a concentration of 2 μM. […] Subsequently, the radioactivity was determined with a scintillation counter.
The phospholipase A2 activity of GS21015 was determined in the presence (or in the absence) of various test substances, and the inhibitory actions by various test substances were evaluated. […]

For assay [2], the target named is cPLA2α (Homo sapiens, UniProt P47712). The experiment in a line: Inhibitory action on phospholipase A2 activity of cPLA2α (same method as for GS21015). The following applies: read-out: IC50 Value for cPLA2α Activity; supernatant of lysate of COS-7 cells transfected with cPLA2α expression vector; test substance 0 to 45 μM. As to the method: First, 1 -palmitoyl-2-[^14C]arachidonyl-phosphatidylcholine (manufactured by Life Science Products) dried under a nitrogen gas was added to a reaction buffer [10 mM HEPES pH 7.5, 2 mM calcium chloride, 150 mM sodium chloride, 30% glycerol, 1 mg/ml bovine serum albumin (fatty acid-free)] so as to have a concentration of 2 μM. The mixture was stirred, immersed in a bath-type ultrasonic washing machine for 30 minutes, and thereafter stirred again. To 250 μl of this substrate solution was added 10 μl of an enzyme solution (supernatant of cell lysate of COS-7 cells into which the expression vector plasmid for GS21015 was transfected; as a control, supernatant of the cell lysate of the same cells into which only the vector was transfected) to initiate the reaction. After the reaction was carried out while keeping the temperature at 37° C. for 0, 30 or 60 minutes, 1.25 ml of a Dole's reagent (2-propanol:heptane: 1 N sulfuric acid=20:5:1) was added thereto to stop the reaction. Further, 0.1 g of silica gel for column chromatography (manufactured by Fuji Silysia Chemical Ltd.) was added thereto and stirred. Thereafter, 0.75 ml of heptane and 0.75 ml of ion-exchanged water were added thereto. The mixture was stirred for 10 seconds or longer. […] Subsequently, the radioactivity was determined with a scintillation counter. […]

`CCCCC/C=C\C/C=C\C/C=C\C/C=C\CCCCOP(=O)(F)OC` (stereo not drawn): the concentration for half-maximal inhibition (IC50) was less than 10 µM in assay [1] (read-out: IC50 Value for GS21015 Activity, supernatant of lysate of COS-7 cells overexpressing GS21015, no EGTA, test substance 0 to 45 μM) and 10 to 40 µM in assay [2]. The “inhibitory action on the phospholipase A2 activity of GS21015” value in assay [1] (statement in words) is “has an inhibitory action”.

Values taken from US7422887B2, “Phospholipase A2 and gene thereof” (dated 2008).
